Here are results for two compounds from PubChem BioAssay AID624170 (National Center for Advancing Translational Sciences (NCATS), 2012).

The chains behind the UniProt entries cited, without tags or fusion partners. Where a name states a change or a piece, a line headed by the entry shows the natural chain unless it says otherwise.
UniProt O94925: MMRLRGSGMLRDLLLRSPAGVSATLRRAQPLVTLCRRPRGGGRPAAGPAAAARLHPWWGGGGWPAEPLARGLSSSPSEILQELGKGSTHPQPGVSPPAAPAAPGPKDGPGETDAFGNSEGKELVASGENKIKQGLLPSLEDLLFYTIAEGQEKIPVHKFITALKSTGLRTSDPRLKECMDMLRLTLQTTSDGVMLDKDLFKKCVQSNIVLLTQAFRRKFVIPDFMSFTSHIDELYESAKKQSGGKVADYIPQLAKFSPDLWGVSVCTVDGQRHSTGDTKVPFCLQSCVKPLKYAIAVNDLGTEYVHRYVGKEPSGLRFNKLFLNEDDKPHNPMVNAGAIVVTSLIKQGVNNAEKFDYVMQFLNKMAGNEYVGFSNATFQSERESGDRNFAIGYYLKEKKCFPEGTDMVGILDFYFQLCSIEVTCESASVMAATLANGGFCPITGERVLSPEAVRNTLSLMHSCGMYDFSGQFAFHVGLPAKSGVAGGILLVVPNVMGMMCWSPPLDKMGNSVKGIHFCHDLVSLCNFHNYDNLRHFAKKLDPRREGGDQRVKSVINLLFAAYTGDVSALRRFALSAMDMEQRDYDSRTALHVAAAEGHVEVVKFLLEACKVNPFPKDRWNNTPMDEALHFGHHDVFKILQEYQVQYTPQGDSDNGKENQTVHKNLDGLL

SMILES strings stand for the structures. Values joined by “and” are separate entries in the source; they are usually repeats but may differ in a detail not shown here. Equal values may be shown once. Shown are results outside the selection of hits, which stands elsewhere. Results filed as inconclusive are left out. Active and inactive are the calls of the source. The call rests on the fitted dose curve; in most records, active means well fitted inhibition curve with a large enough effect; inconclusive means small, poorly fitted or top-dose-only effect, or another doubt; inactive means no such curve, though single readings can be large or run the other way.
On the % scale 0 is the no-effect control and ±100 the full control effect.

This experiment has as its target Glutaminase kidney isoform, mitochondrial (Homo sapiens) (UniProt O94925). In words: qHTS for Inhibitors of Glutaminase (GLS). To be noted: GLS enzymatic activity, qHTS titration; at 45.5 µM (top of the series). The source says:
Glutaminase (GLS) catalyzes the hydrolysis of glutamine into glutamate and ammonia. It plays a critical role in glutaminolysis, which is an important energy source for proliferating cells. It was shown that c-Myc, an oncogenic transcription factor known to regulate microRNAs and to stimulate cell proliferation, increases glutamine metabolism by stimulating the expression of GLS via direct suppression of miR23a and miR23b.
GLS is also thought to play a pathogenic role on HAD using a human HIV-1 infected macrophage system. […] GLS inhibition limits glutamate release and provides neuroprotection against HIV-1 infected macrophages.
The overall goal of this project is to identify small molecule inhibitors of GLS through quantitative high throughput screening (qHTS) of the MLSMR. A validated potent and selective inhibitor can be used as a tool molecule to further study the pharmacology of its target as well as explore its potential therapeutic application in cancer and inflammatory neurological disorders, such as HIV1-associated dementia (HAD) and multiple sclerosis.
NIH Chemical Genomics Center [NCGC] […]
Three 3 uL of hKGA is dispensed into black well 1536-well plates in 45 mM KH2PO4 (pH 8.2), 0.02% Tween-20. […] Plate is centrifuged for 25 sec before an initial fluorescence read is obtained on the ViewLux, after 30 min of RT incubation, the final read is taken on the ViewLux.
`COc1ccc(CC(C)NCC(O)c2ccc(O)c(NC=O)c2)cc1` (configuration not stated): the activity change, negative = inhibition is inactive: 38.1% and inactive: 50.2% and inactive: 24.1%. For `COc1ccc(C[C@H](C)NC[C@@H](O)c2ccc(O)c(NC=O)c2)cc1` the value was inactive: 72.2% and inactive: 63.2%.
